For 1 compound, Ka and Kd results are on record in PMC8547461, “An Intracellular Sensing and Signal Transduction System That Regulates the Metabolism of Polycyclic Aromatic Hydrocarbons in Bacteria” (mSystems, 2021).

Each structure is given as a SMILES string.

The test system of test [1] is DPR-1^L93A/D94A/T101A/L102A. The experiment in a line: SPR binding of c-di-GMP to mutated DPR-1. Also on record: species or system Cycloclasticus sp. strain P1. Conditions: quadruple mutated DPR-1. For orientation: In SPR one partner is held on a chip, and binding of the other changes the refractive index at the surface.
For test [2], the target named is DPR-2^L91A/D92A/T99A/L100A. The experiment in a line: SPR binding of c-di-GMP to mutated DPR-2. The arrangement: species or system Cycloclasticus sp. strain P1. Conditions: quadruple mutated DPR-2.

As for `Nc1nc2c(ncn2C2OC3COP(=O)(O)OC4C(COP(=O)(O)OC3C2O)OC(n2cnc3c(=O)[nH]c(N)nc32)C4O)c(=O)[nH]1` (stereo not drawn) [c-di-GMP, cyclic dimeric GMP], the Ka in test [1] turned out to be 4.33e3 M^-1S^-1. The Kd in test [1] is recorded as 1.53e-2 S^-1; in test [2], 2.34e-2 S^-1.
